Publication PMC6405930, “Conservation of the Amyloid Interactome Across Diverse Fibrillar Structures” (Scientific Reports, 2019)

Protein sequences, listed by entry. Tags and fused reporters are not part of them. Residues count along the entry.
UniProt P01275, 53-81 limits assumed: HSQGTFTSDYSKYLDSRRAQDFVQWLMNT
UniProt P01009, 383-418 limits assumed: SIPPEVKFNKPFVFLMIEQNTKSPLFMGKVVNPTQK

Key:
[1] = molecular target: T1, αSN fibrils (Homo sapiens, UniProt P37840); assay: Fibril incubation with CSF, quantitative MS/MS of bound proteins; format: binding; conditions: 4:1 w/w CSF protein:fibril
Experimental: (§1) Plasma and CSF solutions were centrifuged (40,000 g, 20 min) to remove any aggregates. The protein concentration was determined using 280 nm absorbance assuming 1 Abs = 1 mg/mL. […] Control samples (without fibril material) were prepared similarly. All samples were incubated at room temperature for one hour under gentle agitation. Fibrils and fibril-bound proteins were pelleted by centrifugation at 17,000 g for 30 minutes. The supernatant (175 μL) was removed and the aggregate was re-suspended in 175 μL PBS and pelleted again before further preparation for gel analysis and spin-filter assisted digest for quantitative MS/MS. […]
(§2) The micro-purified tryptic peptides were dissolved in 0.1% formic acid, injected and trapped on an in-house packed trap column (2 cm × 100 μm I.D) with RP ReproSil-Pur C18-AQ 3 μm resin (Dr. Maisch GmbH). […] Elution from the analytical column was performed with a linear gradient from 5% to 35% phase B (90% acetonitrile with 0.1% formic acid) over 20 min for protein identification and 50 min for quantitative analysis, respectively.
(§3) All samples were analysed three times, yielding nine MS/MS experiments for each fibril for both plasma and CSF. […]
(§4) XIC quantification was based on the average ion intensity of the three most abundant peptides for each protein. Only proteins quantified in at least four out of nine MS/MS experiments per fibril were included in the quantification. […]

[2] = molecular target: T2, glucagon fibrils (Homo sapiens, UniProt P01275); assay: Fibril incubation with plasma, quantitative MS/MS of bound proteins; format: binding; conditions: 50:1 w/w plasma protein:fibril
T2 construct: fibrils of the peptide hormone glucagon
Experimental: as §1, §2, §3, §4

[3] = system: T3, Ab2 fibrils; assay: as above; format: binding, human; conditions: 50:1 w/w plasma protein:fibril
T3 construct: Two structurally distinct fibrils of the Aβ(1–40) peptide associated with AD
Experimental: as §1, §2, §3, §4

[4] = system: T4, Ab1 fibrils; assay: as above; format: binding, human; conditions: 50:1 w/w plasma protein:fibril
T4 construct: Synthetic amyloid β peptide 1–40 was purchased from Caslo Aps (Lyngby, Denmark); purchased Caslo Aps (Lyngby, Denmark); host or cells: synthetic peptide
Experimental: (§5) Plasma and CSF solutions were centrifuged (40,000 g, 20 min) to remove any aggregates. The protein concentration was determined using 280 nm absorbance assuming 1 Abs = 1 mg/mL. […] Control samples (without fibril material) were prepared similarly. All samples were incubated at room temperature for one hour under gentle agitation. Fibrils and fibril-bound proteins were pelleted by centrifugation at 17,000 g for 30 minutes. The supernatant (175 μL) was removed and the aggregate was re-suspended in 175 μL PBS and pelleted again before further preparation for gel analysis and spin-filter assisted digest for quantitative MS/MS. […]
as §2, §3

[5] = molecular target: T5, C-36 fibrils (Homo sapiens, UniProt P01009); assay: as above; format: binding; conditions: 50:1 w/w plasma protein:fibril
T5 construct: the 36 residue C-terminal fragment of α1-antitrypsin (C-36)
Experimental: as §1, §2, §3, §4

[6] = molecular target: T1, αSN fibrils; assay: as above; format: binding; conditions: 50:1 w/w plasma protein:fibril
Experimental: as §1, §2, §3, §4

[7] = system: T6, FAS4-AD aggregates; assay: as above; format: binding, human; parameters: key: *: Identified, but not quantified; —: Not identified in any of the samples; conditions: symbol cells
T6 construct: aggregates of a mutated version of the FAS1-4 domain of TGFBIp
Experimental: as §1, §2, §3, §4

[8] = system: fibril systems (Ab1, Ab2, glucagon, αSN and C-36); assay: Fibril incubation with CSF, quantitative MS/MS, span over the fibril systems; format: binding, human
Experimental: as §5, §2, §3

Apolipoprotein E: plasma/CSF protein bound to fibrils
Relative composition of CSF proteins bound: αSN [1]: 11.0 ± 3.0 % of total protein

Coagulation factor X: plasma protein bound to fibrils
Relative composition of plasma proteins bound: Glucagon [2]: 0.6 ± 0.0 % of total protein
Relative composition of plasma proteins bound: Ab2 [3]: 0.5 ± 0.1 % of total protein
Relative composition of plasma proteins bound: Ab1 [4]: 0.4 ± 0.0 % of total protein
Relative composition of plasma proteins bound: C-36 [5]: 0.2 ± 0.1 % of total protein
Relative composition of plasma proteins bound: αSN [6]: 0.9 ± 0.5 % of total protein
Identification status of plasma protein bound: FAS4-AD [7]: *

Serum albumin: plasma/CSF protein bound to fibrils
contribution to the fibril interactomes [8]: 27.8–69.7%
